Results as given in patent publication US6964979B2, “R-enantiomers of pyranoindole derivatives and the use thereof for the treatment of hepatitis C virus infection or disease” (Wyeth, priority 2002, dated 2005).

Tested on: HCV replicon (1b) in Clone A cells (derived from Huh-7)
Experiment: HCV replicon ELISA (NS5a) in Clone A cells
Format: cell-based, Hepatitis C virus
Details: 3 days incubation
Procedure: The ability of the compounds of the present invention to inhibit Hepatitis C virus replicon constitutively expressed in a human liver cell line was established by the following experimental procedure:
Clone A cells (licensed from Apath, LLC) are derived from Huh-7 cells (human hepatoma cell line) and constitutively express of the HCV replication proteins with concomitant amplification the HCV replicon (1b) genome. Cells are maintained and passaged in DMEM/10% FCS/1 mg/ml G418 (Geneticin from Gibco #11811-023; other media components as described below in “elisa media”). Care should be taken to maintain cell monolayers at a subconfluent state by 1:3 or 1:4 passages every 3-4 days. The replicon is extremely sensitive to the cellular metabolism/proliferation state and replicon copy number will rapidly decline in confluent monolayers (resting cells). Under ideal conditions each cell has, on average, 1000 copies of the HCV replicon genome. […]
Compound Dilution/Cell Plating: • Drug Plate Preparation (Mother Plate) • 10 μl of compounds (in DMSO) are added to column 3 of the mother plate. […] Mother plates are set aside until ready for serial dilution to be performed. • Control Drugs […]

Interferon-a2: reference compound of the HCV replicon ELISA assay
IC50 (reference compound, replicon ELISA): 4-30 U/ml
